Source: patent US20250171753A1, “PEPTIDE AND USE THEREOF IN THE PREVENTION OF THERAPY-RELATED LEUKEMIA” (UNIVERSITÄT ULM, priority 2022, published 2025)

System: MLLbcr rearrangements in K562/MLL cells
Test: Fluorescence-based (EGFP reconstitution) recombination assay for MLLbcr rearrangements in K562/MLL cells after doxorubicin
Assay type: cell-based, human
Conditions: expression plasmid electroporated into K562/MLL; 2 μM doxorubicin 4 h; 72 h culture; vs empty vector
Experimental: Human K562/MLL cells, derived from K562 leukemia cells, with chromosomally integrated plasmid pHR-EGFP/3′ EGFP-MLLbcr.fwd (Ireno et al. Arch Toxicol. 2014, 88(5):1141-59) were cultured in RPMI1640 medium (Gibco/Thermo Fisher Scientific, Waltham, Massachusetts, USA) and HeLa/MLL cells also with chromosomally integrated plasmid pHR-EGFP/3′EGFP-MLLbcr.fwd (Gole et al. 2015, Oncogene 34: 3391-401), were cultured in DMEM medium (Gibco/Thermo Fisher Scientific, Waltham, Massachusetts, USA) at 37° C. and 5% CO2. Both media were supplemented with 10% foetal bovine serum (Biochrom, Berlin, Germany) and 1% L-glutamine (Gibco/Thermo Fisher Scientific). To split the cultures, the HeLa/MLL cells were treated with 1×PBS (Gibco/Thermo Fisher Scientific), washed, and detached from the surface with trypsin/EDTA (PAN Biotech, Aidenbach, Germany) before a portion was transferred to the new culture flask. The cells used were free of mycoplasma according to PCR assay. […]
Use of the fluorescence-based assay system for recombination measurements with K562/MLL or HeLa/MLL cells with chromosomally integrated plasmid pHR-EGFP/3′EGFP-MLLbcr.fwd is described in detail in Ireno et al. 2014 and Gole et al. 2015, respectively. […] This suspension was transferred to FACS tubes and the fluorescence of the cells was detected on the FACSCalibur™ (BD Biosciences, San Jose, California, USA). […]

In the case of “wtKu80: human wild-type Ku80, full length, expressed from plasmid”, the “effect on MLLbcr rearrangements (recombination frequency), in words” value is reported as “no effect”.
